# Most compounds without a hit are left out; they make up all but 0.43% or so of the library.
# HCMV NEC inh: inhibitors of HCMV UL50-UL53 interaction, biochemical, HTRF; actives 0.15% (n = 190,000); inhibition, % (concentration not given with the values); normalized percent inhibition; HCMV UL50-UL53 nuclear egress complex (human cytomegalovirus); in the data active means inhibition above about 27%, passing the limit was not always enough
# GIV-Gai inh: blocks GIV peptide binding to rat Galpha-i3. P08753. Galpha-i3/FITC-GIV peptide fluorescence polarization, 90 min; stronger effect = lower value; scaled: aluminum fluoride 0%, vehicle 100%. percent of control (FP), % (concentration not given with the values). hit rate 0.42% among 210,000. AID 1224905;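 active means replicate mean at 85% of control or lower, very high polarization wells dropped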;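 further: wells of about 15 µL received 100 nL stock; the first replicate is given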
# GIV Gai FP conf: inhibitors of GIV peptide binding to Galpha-i3, confirmation, biochemical, fluorescence polarization, FITC-GIV peptide, rat Galphai3. shares compounds with GIV-Gai inh. AID 1259350, 2017. hits give low values. actives 38% (n = 580). fluorescence polarization, mP at 100 µM;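 active means inhibition score of 15 or more, meaning 100 minus mean polarization as percent of control over three replicates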;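 further: lower mP means peptide displaced from Galphai3 so more inhibition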
# GIV-Gai AS conf: inhibitors of GIV binding to Galpha-i3, confirmation, orthogonal assay for GIV-Galpha-i inhibitor project, biochemical, AlphaScreen, His-GIV, GST-Galphai3; shares compounds with GIV-Gai inh; purified proteins, 90 min; hits give low values; AlphaScreen counts at 100 µM; actives 39% (n = 580);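 active means inhibition score at or above a set limit, where the score is 100 minus the three-replicate mean percent of control signal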
# * = called active by the depositor; / = not tested or not shown.
1: OCC1O[C@H]([S-])[C@@H](O)C(O)[C@@H]1O.[Au+] (some centres not stated)
2: OCC1O[C@H](O)C(Cl)C(O)C1O (some centres not stated)
3: O=c1oc(-c2ccc(Br)cc2)nc2scc(-c3ccc(-c4ccccc4)cc3)c12
4: O=c1c2cc3c(nc2ncn1Cc1cc(=O)n2ccccc2n1)CCCC3
5: Cc1cc2c(n1-c1ccc(C(=O)N3CCN(c4ccccc4)CC3)cc1)CCCCC2

screen / no.	1	2	3	4	5
HCMV NEC inh	-111.1	-22.9	-19.6	-44.0	/
GIV-Gai inh	64.8*	104.9	103.2	122.2	100.7
GIV Gai FP conf	57.1*	/	/	/	/
GIV-Gai AS conf	6583*	/	/	/	/

6: Cc1cc2c(n1-c1ccc(C(=O)O)cc1)CCCC2
7: Cc1ccc(CN2CCN(c3ncnc4c3CCC4)CC2)o1
8: CCOC(=O)c1[nH]c(=O)c2ccccc2c1O
9: Cc1ccc(C(=O)c2[nH]c(=O)c3ccccc3c2O)c(C)c1
10: Cc1nc2cc(-c3noc(-c4cnccn4)n3)ccc2n(C(C)C)c1=O

screen / no.	6	7	8	9	10
HCMV NEC inh	65.8*	/	-11.8	59.6*	-40.3
GIV-Gai inh	79.4*	108.6	110.0	81.2*	105.8
GIV Gai FP conf	57.9*	/	/	60.9	91.2
GIV-Gai AS conf	3001*	/	/	47319	35710

# Three consecutive compounds from above:
5: Cc1cc2c(n1-c1ccc(C(=O)N3CCN(c4ccccc4)CC3)cc1)CCCCC2
6: Cc1cc2c(n1-c1ccc(C(=O)O)cc1)CCCC2
7: Cc1ccc(CN2CCN(c3ncnc4c3CCC4)CC2)o1

screen / no.	5	6	7
HCMV NEC inh	/	65.8*	/
GIV-Gai inh	100.7	79.4*	108.6
GIV Gai FP conf	/	57.9*	/
GIV-Gai AS conf	/	3001*	/

# (cont.)
11: CCn1nnc2cc(-c3noc(-c4cnccn4)n3)ccc21
12: O=C(c1noc2ccc(S(=O)(=O)N3CCOCC3)cc12)N1CCCC1
13: CCOC(=O)/C(C#N)=C/c1ccc(-c2ccc(Cl)c(C(=O)OC)c2)o1
14: CCOC(=O)/C(C#N)=C/c1ccc(-c2ccc(Br)cc2)o1
15: CN(C)c1ccc(-c2nnc3sc(-c4ccncc4)nn23)cc1

screen / no.	11	12	13	14	15
HCMV NEC inh	/	/	0.0	12.2	-63.3
GIV-Gai inh	98.3	101.1	64.6*	104.6	106.0
GIV Gai FP conf	/	/	75.7	/	/
GIV-Gai AS conf	/	/	22310	/	/

16: CN(C)c1ccc(-c2nnc3sc(-c4cccnc4)nn23)cc1
17: COc1ccc(-c2nnc(SCc3nnc(-c4ccccc4)o3)o2)cc1OC
18: CCOC(=O)c1ccc(Nc2nc(C)c3ncn(-c4ccc(C(=O)OCC)cc4)c3n2)cc1
19: CN(N)c1cc(=O)n(C)c(=O)[nH]1
20: Cn1c(=O)cc(N2CCCCC2)[nH]c1=O

screen / no.	16	17	18	19	20
HCMV NEC inh	-15.5	-16.9	-41.7	-48.8	-15.6
GIV-Gai inh	83.2*	101.2	108.9	63.6*	107.2
GIV Gai FP conf	63.4	/	/	49*	/
GIV-Gai AS conf	30008	/	/	32708	/

21: Clc1ccc(C2CC(c3cccs3)=Nc3ccccc3S2)cc1 (configuration not stated)
22: CC1=CC(=C2C(=O)c3ccccc3C2=O)C=C(C)N1C(C)C
23: CC1=CC(=C2C(=O)c3ccccc3C2=O)C=C(C)N1CCO
24: O=C(COC(=O)Cc1cccc2ccccc12)Nc1ccc2[nH]c(=O)[nH]c2c1
25: Cc1ccc2sc(N3CCN(CCNC(=O)c4ccc5c(c4)OCCO5)CC3)nc2c1C

screen / no.	21	22	23	24	25
HCMV NEC inh	/	-113.2	-51.6	-3.0	/
GIV-Gai inh	116.1	72.7*	91.3	/	102.8
GIV Gai FP conf	/	71	/	/	/
GIV-Gai AS conf	/	40071	/	/	/

26: Cc1ccc(Cn2c(=O)c3ccccc3n3c(SCC(=O)N4CCCC4)nnc23)cc1
27: O=C(Cn1cc(S(=O)(=O)Cc2cccc(Cl)c2)c2ccccc21)NCC1CCCO1 (configuration not stated)
28: COc1ccccc1OC(=O)c1ccc2c(c1)OCCO2
29: NC1=NC2(O)c3ccccc3C(=O)C2(O)NN1 (configuration not stated)
30: O=C1NC2(O)C(=O)c3ccccc3C2(O)N1 (configuration not stated)

screen / no.	26	27	28	29	30
HCMV NEC inh	-9.2	-10.6	-18.3	/	/
GIV-Gai inh	/	107.6	/	76.4*	112.5
GIV Gai FP conf	/	/	/	53.6*	/
GIV-Gai AS conf	/	/	/	44135	/

31: CCCCCCCCOc1ccc(/C=C2\c3cc([N+](=O)[O-])ccc3-c3c2cc([N+](=O)[O-])cc3[N+](=O)[O-])cc1
32: CC1(C)N2CC3([N+](=O)[O-])CN1CC([N+](=O)[O-])(C2)C3(C)C
33: CC1(C)C2([N+](=O)[O-])CN3CC1([N+](=O)[O-])CN(C2)C3c1ccc(O)cc1 (configuration not stated)
34: CCOC(=O)N1CCC(=NNC(=O)Cn2nnc3ccccc32)CC1
35: COc1cccc(/C=C(\C#N)c2nc3ccc(C)cc3[nH]2)c1
36: N#C/C(=C/c1ccc(Cl)cc1Cl)c1nc2ccccc2c(=O)[nH]1
37: COc1c(Cl)cc(Cl)cc1/C=C(\C#N)c1nc2ccccc2[nH]1
38: COc1cc(/C=C(\C#N)c2nc3ccc(C)cc3[nH]2)ccc1OCc1ccc(C)cc1

screen / no.	31	32	33	34	35	36	37	38
HCMV NEC inh	/	/	/	-10.6	-37.0	-22.4	/	-8.5
GIV-Gai inh	119.6	92.0	128.1	/	69.5*	105.8	46.2*	106.0
GIV Gai FP conf	/	64.2	/	/	79.7	/	83.9	/
GIV-Gai AS conf	/	45009	/	/	34173	/	32566	/

# Compound activity (PubChem)
